# scFv variants of Ab-14 (heavy chain) against a SARS-CoV-2 spike peptide

The measurements come from Li et al. 2023 (doi:10.1038/s41467-023-39022-2) through the FLAb antibody collection.

The target is the same throughout: PDVDLGDISGINAS, from the HR2 region of SARS-CoV-2 spike.

Ab-14 is the parent antibody, in scFv form: VH, then three GGGGS repeats, then VL. The light chain is unchanged in all variants.
VH: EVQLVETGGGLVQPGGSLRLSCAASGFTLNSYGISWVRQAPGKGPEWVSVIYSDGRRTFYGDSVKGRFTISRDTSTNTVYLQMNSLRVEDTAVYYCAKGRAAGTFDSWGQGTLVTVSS
VL: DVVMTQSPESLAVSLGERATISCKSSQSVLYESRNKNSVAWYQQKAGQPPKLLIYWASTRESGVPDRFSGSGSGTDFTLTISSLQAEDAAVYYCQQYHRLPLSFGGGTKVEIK

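Designed CDR sequences, proposed from the first random library and measured here. Group labels follow the data file (Ctrl: baseline library sampled from a position-specific scoring matrix, with some repeated check sequences; Rand: our label for a block that the file lists under HC and that is probably the random mutants of the ten best first-round binders; GP: Gaussian process model; GPLM: also part of the Gaussian process libraries; HC: hill climbing; Gen: genetic algorithm; Gibbs: Gibbs sampling; a sequence that several methods proposed may carry one label only). Affinity was read by AlphaSeq, a pooled yeast mating assay with surface-displayed partners. Binding brings cells together so that they mate, and sequencing counts the barcode pairs among the diploids. Scores were corrected for input abundance and mapped to Kd with protein pairs of known affinity run in the same pool. Each pool was mated in six replicate cultures.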

Each variant is given by its three heavy chain CDRs, as the data file delimits them; those of the parent are GFTLNSYGIS, VIYSDGRRTFYGDSVK, GRAAGTFDS. Variants here have at most six changes. Values are apparent Kd, the geometric mean of the replicates that gave a signal; lower means stronger binding. A pair that was not seen in any replicate is written "nd"; this usually means weak binding, but a binder can also be missed. The authors' rule: three or more of the six replicates give a measured affinity, fewer mean a poor binder. As a blank, each scFv also met three strains without target: over all heavy chain designs, 1% of these pairings were detected, typically at 120 nM and seldom below 7.0 nM. The control count says in how many pairings with the empty strains this scFv gave a signal. Of ten entries with the parent sequence, four were seen in most replicates (averages 2.2 nM to 240 nM), three in one and three in none, so single entries are noisy. Some sequences occur more than once in the pool; their replicates are pooled. Values of this round are not directly comparable with the first-round values of the same sequences.

Variant GFELNSYGIS | VIYSDGRRTFYIDSVK | GRMAGTFDS [GPLM_Gibbs] showed 53 nM (5 of 6 replicates; controls 1 of 18). Variant AFDLNSYGIS | VIYSDGRRTFYADSVK | GNAAGTFDS [GP_Gibbs] showed 27 nM (6 of 6 replicates; controls 0 of 18). Variant GFTLNEYGIS | VIYSDGRRTFYGDSVK | GRAAGTFGL [GP_HC] gave 1.2 nM (6 of 6 replicates; controls 0 of 18). Variant GFTLNSYGIS | VIYSDGRRTFYGDSVK | CGATGAGDS [Ctrl] gave 1.0 µM (1 of 6 replicates; controls 0 of 18). With GFDLNSYGIS | VIYSDGRRTFYADQVK | GKAAGTFDS [GP_Gen] the result was 1.3 nM (6 of 6 replicates; controls 0 of 18).

Variant GFDLNSYGIS | VIYSDGRRTFYGDSVK | GRAAGHFES [GPLM_HC] showed nd (0 of 6 replicates; controls 0 of 18). Variant GFGLNSYGIS | VIYSDGRRTFYADSVK | GHEAGTFDS [GP_Gibbs] showed 1.6 nM (6 of 6 replicates; controls 2 of 18). With GATLNESGIS | VIYSDGRRTFYGNSVK | GRAAVTFDQ [Rand] the result was nd (0 of 6 replicates; controls 1 of 18). Variant GFDLNSYGIS | VIYSDGRRTFYVDSVK | GRVAGTFDI [GP_Gibbs] gave 2.9 nM (6 of 6 replicates; controls 0 of 18). Variant GFTLNDYGIS | VIYADGRRTFYGDSVK | GRAAGTFKS [GP_HC] gave 61 nM (5 of 6 replicates; controls 1 of 18).

With GFTLNEYGIS | VIYSDGRRTFYYDSVK | GRYAGTFDS [GPLM_HC] the result was 8.4 µM (1 of 6 replicates; controls 1 of 18). With GFQLNEYGIS | VIYSDGRRTFYGDSVK | GQAAGTFDA [GP_Gibbs] the result was 9.4 nM (6 of 6 replicates; controls 0 of 18). With GFTLDSYGIS | VIYSDGRRTFYGDSVK | GRIAGVFDS [Ctrl] the result was 16 nM (6 of 6 replicates; controls 1 of 18). With GFSLNEYGIS | VIYSDGRRTFYEDSVK | GTAAGTFDS [GP_Gibbs] the result was 8.8 nM (6 of 6 replicates; controls 0 of 18). Variant SFDLNSYGIS | VIYSDGRRTFYGDSVK | GKIAGTFDS [GP_Gibbs] showed 5.4 nM (6 of 6 replicates; controls 0 of 18).

Variant GFQLNEYGIS | VIYSDGRRTFYGDSVK | GRMAGTFDS [GP_Gen] gave 2.9 nM (6 of 6 replicates; controls 0 of 18). With GFTLNMYGIS | VIYSDGRRTFYGDSVK | GEAAGTFSS [Ctrl] the result was 88 nM (4 of 6 replicates; controls 0 of 18). With MFSLNSYGIS | VIYSDGRRTFYGDSVK | GQIAGTFDS [GP_Gibbs] the result was nd (0 of 6 replicates; controls 0 of 18). Variant GFTLNEYGIS | VIYSDGRRTFYGDAVK | GRAAVTFDV [GP_HC] showed nd (0 of 6 replicates; controls 0 of 18). Variant GFTLVDYIIS | VIYSDGRRTFYGDSVK | GRAALTFIS [Rand] showed nd (0 of 6 replicates; controls 0 of 18).

With WFSLNSYGIS | VIYSDGRRTFYADSVK | GWTAGTFDS [GP_Gibbs] the result was 140 nM (5 of 6 replicates; controls 0 of 18). With GFDLNSYGIS | VIYSDGRRTFYADRVK | GREAGTFDS [GP_Gen] the result was 9.6 nM (6 of 6 replicates; controls 1 of 18). With GFTLNSYGIS | VIYSDGRRTFYADSVK | GEAAGTFDS [Ctrl+GPLM_Gen] the result was 3.3 nM (11 of 12 replicates; controls 2 of 36). For GFTANEYGIS | VIYSKGRRTFYTDSVK | GRFAGTFDS [Rand], the assay gave nd (0 of 6 replicates; controls 0 of 18). Variant GFELNSYGIS | VIYSDGRRTFYHDSVK | GREAGTFDP [Ctrl] showed nd (0 of 6 replicates; controls 0 of 18).

For GFTLNQYGIS | VIYCDGRRTFYKDSVK | GRAAGFFDS [Rand], the assay gave nd (0 of 6 replicates; controls 0 of 18). With GATLNSYGIS | VIYSDGRRTFYGDSVK | GRAAGTFDS [Ctrl] the result was 140 nM (2 of 6 replicates; controls 0 of 18). Variant GFTLNSYGIS | VIYSDGFRTFYMDSVK | GSAAGTFDS [Ctrl] gave nd (0 of 6 replicates; controls 0 of 18). Variant GFTLDSYRIS | VIYSDLRRTFYGDSVK | GRAAGTALS [Rand] gave nd (0 of 6 replicates; controls 0 of 18). Variant GFDLNSYGIS | VIYSDGRRTVYGDSVK | GREAGTFDS [GPLM_Gibbs] showed 1.8 nM (6 of 6 replicates; controls 0 of 18).

Variant GFTLNSYGIS | VIYSDGKRTFYSDSVK | GRVAGTFDT [GPLM_Gibbs] showed 63 nM (1 of 6 replicates; controls 0 of 18). With GFTLNSYGIS | VIYSDGRRTFYSDSVK | GRAAVTFDG [GP_HC] the result was nd (0 of 6 replicates; controls 0 of 18). Variant GFTLNSYGIS | VIYSDGRRTFYGDSVK | ARAAGTFDS [Ctrl] showed 130 nM (1 of 6 replicates; controls 0 of 18). For GFTLNSYGIS | VIYSDGMRTFYSDSVK | GKTAGTFDS [GP_HC], the assay gave 7.5 nM (5 of 6 replicates; controls 0 of 18). Variant GFQLSSYGIS | VIYSDGRRTFYGDSVK | GRAAGTFDM [Ctrl] showed 68 nM (6 of 6 replicates; controls 1 of 18).

Variant GFQLNEYGIS | VIYSDGRRTFYGDSVK | GQTAGTFDL [GP_Gibbs] showed 1.0 nM (6 of 6 replicates; controls 1 of 18).

The 4 strongest on average among those seen in every replicate, once more:

| CDR-H1 | CDR-H2 | CDR-H3 | group | Kd (apparent) | replicates with signal | empty controls |
|---|---|---|---|---|---|---|
| GFQLNEYGIS | VIYSDGRRTFYGDSVK | GQTAGTFDL | GP_Gibbs | 1.0 nM | 6/6 | 1/18 |
| GFTLNEYGIS | VIYSDGRRTFYGDSVK | GRAAGTFGL | GP_HC | 1.2 nM | 6/6 | 0/18 |
| GFDLNSYGIS | VIYSDGRRTFYADQVK | GKAAGTFDS | GP_Gen | 1.3 nM | 6/6 | 0/18 |
| GFGLNSYGIS | VIYSDGRRTFYADSVK | GHEAGTFDS | GP_Gibbs | 1.6 nM | 6/6 | 2/18 |